Here are results for 1 compound from ChEMBL document CHEMBL1143222, “Synthesis and in vitro activity of N'-cyano-4-(2-phenylacetyl)-N-o-tolylpiperazine-1-carboximidamide P2X7 antagonists” (Bioorg Med Chem Lett, 2008).

The IC50 is the point on the concentration scale where inhibition reaches its midpoint.

For this test, the target named is T1, P2X purinoceptor 7 (Rattus norvegicus, UniProt Q64663).
T1 sequence (Q64663 whole entry): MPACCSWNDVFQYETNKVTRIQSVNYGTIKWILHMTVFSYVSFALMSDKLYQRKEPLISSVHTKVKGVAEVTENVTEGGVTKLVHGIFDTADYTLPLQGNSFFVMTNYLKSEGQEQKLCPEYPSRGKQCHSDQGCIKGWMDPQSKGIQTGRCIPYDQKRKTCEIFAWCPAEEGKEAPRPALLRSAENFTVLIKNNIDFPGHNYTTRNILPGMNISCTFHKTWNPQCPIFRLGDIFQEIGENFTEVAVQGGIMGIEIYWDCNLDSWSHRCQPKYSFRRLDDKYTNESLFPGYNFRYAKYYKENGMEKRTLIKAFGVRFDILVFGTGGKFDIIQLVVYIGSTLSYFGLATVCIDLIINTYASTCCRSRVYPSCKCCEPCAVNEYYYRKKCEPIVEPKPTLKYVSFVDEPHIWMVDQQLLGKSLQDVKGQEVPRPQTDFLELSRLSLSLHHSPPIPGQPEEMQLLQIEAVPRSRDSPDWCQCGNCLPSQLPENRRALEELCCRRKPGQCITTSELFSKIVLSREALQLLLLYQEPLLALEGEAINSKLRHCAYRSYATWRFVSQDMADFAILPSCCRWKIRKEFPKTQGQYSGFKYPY
Put plainly: Antagonist activity at rat recombinant P2X7 receptor assessed as inhibition of calcium flux by FLIPR assay. Format: functional. For orientation: Calcium assays in cells follow changes in intracellular calcium, usually with a dye or a luminescent sensor.

`COc1ccc(CC(=O)NC(N/C(=N/C#N)Nc2cccc3ncccc23)C(C)(C)C)cc1OC` (stereo unspecified): the IC50 is 18 nM.
